Test results: patent US20130280279A1, “PHARMACEUTICAL COMPOSITION OF A COMPLEX OF AN ANTI-DIG ANTIBODY AND DIGOXIGENIN THAT IS CONJUGATED TO A PEPTIDE” (HOFFMANN-LA ROCHE INC., priority 2011, published 2013)

System: H322M cells
Test: CytoTox-Glo cytotoxicity assay
Format: cell-based, human
Conditions: 48 hours, read-out: IC50 unmodified peptide
Experimental: To evaluate whether additions or alterations of the peptide Melittin, FALLv1 and FALLv2 by digoxygenin alters its biological activity, we performed in vitro assays. As these peptides are cytotoxic, their biological activity can easily be analyzed by monitoring the number of dead cells. To measure this number, the CytoTox-Glo assay (Promega Madison, WI) was used. Table 2 lists results of these CytoTox-Glo-assays that were performed to assess the biological activity of the Melittin, Fallv1 and Fallv2 peptides and their DIG-modified variants. For these assays, H322M cells were seeded at a density of 15.000 cells per well in 96 well plates. The cells were incubated for 24 hours at 37° C., 5% CO2 and 85% humidity in RPMI with 10% FCS, Na+ Pyrovate, L-Glutamine and NEAA mix. The peptide and it's DIG-modified variant were then added to the cells in the concentrations indicated. The cells were incubated for further 48 hours. After this period, the cells were treated with the CytoTox-Glo-assay reagent according to the manufacturers instructions. […] The luminescence of this assay therefore represents dead cells. The 96 well plates were then analyzed in a InfiniteF200 luminescence reader (Tecan Austria, Groding). […] To address this topic, we analyzed the in vitro activity of peptide-antibody complexes for the cytotoxic peptides FALLv1 and Fam5b. […]

Question: How did the IC50 turn out when `CC[C@H](C)[C@H](NC(=O)CN)C(=O)NCC(=O)N[C@@H](C)C(=O)N[C@H](C(=O)N[C@@H](CC(C)C)C(=O)N[C@@H](CCCCN)C(=O)N[C@H](C(=O)N[C@@H](CC(C)C)C(=O)N[C@H](C(=O)N[C@H](C(=O)NCC(=O)N[C@@H](CC(C)C)C(=O)N1CCC[C@H]1C(=O)N[C@@H](C)C(=O)N[C@@H](CC(C)C)C(=O)N[C@H](C(=O)N[C@@H](CO)C(=O)N[C@@H](Cc1c[nH]c2ccccc12)C(=O)N[C@H](C(=O)N[C@@H](CCCCN)C(=O)N[C@@H](CCCNC(=N)N)C(=O)N[C@@H](CCCCN)C(=O)N[C@@H](CCCNC(=N)N)C(=O)N[C@@H](CCC(N)=O)C(=O)N[C@@H](CCC(N)=O)C(N)=O)[C@@H](C)CC)[C@@H](C)CC)[C@@H](C)O)[C@@H](C)O)C(C)C)C(C)C` [Melittin, reference compound] was run?
Answer: 3.28 µM and 3.3 µM

Where “and” joins values, the source holds several entries; their conditions need not be identical. Equal values may be shown once.
